# Screening data from PubChem.
# Hits are enriched below; roughly 13% of the tested compounds scored in any of these assays.
# Sfp PPTase inh – Sfp phosphopantetheinyl transferase inhibition. 3.5% of 310,000 active. AID 1490. Potency, µM, inactives show max response, negative = inhibition, actives largely listed as inhibitors. Biochemical Sfp PPTase activity, qHTS; active = well fitted inhibition curve with a large enough effect; inconclusive = small, poorly fitted or top-dose-only effect, or another doubt; inactive = no such curve, though single readings can be large or run the other way;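 note: the enzyme is Sfp with the accession as filed and its product quenches rhodamine fluorescence; potency is the fitted concentration of half-maximal effect; 0% = enzyme reaction without inhibitor and -100% = no enzyme wells; top concentration of the series not given in the record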
#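 Fluorescence-quenching assay with 15 nM Sfp, 5 uM rhodamine-CoA and 12.5 uM BHQ-2-labelled ybbR peptide in pH 7.6 Hepes/MgCl2 buffer. Enzyme was pre-incubated with compound for 15 min at room temperature. Rate was taken from the 30-min fluorescence change (525/598 nm).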
# G9a inh – G9a (human) methyltransferase inhibition | Potency, µM (series often up to 102 µM), inactives show top-dose activity, negative = inhibition, actives largely listed as inhibitors | hit rate 8.8% among 350,000 | G9a H3K9 monomethylation, AlphaScreen, 2 h | Q96KQ7; further: potency means the concentration at half of the fitted maximal effect; on the % scale 0 is the no-effect control and ±100 the full control effect; nearly all actives have a fitted effect of over 75% in size
#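 Using a bead-based AlphaScreen, monomethylated H3K9 product from 2 h room-temperature reactions (G9a 20 nM, peptide 500 nM, SAM 20 uM) was detected with 0.5 ug/mL rabbit anti-H3K9me1 antibody.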
# Lamin A splicing – changes lamin A minigene splicing in HeLa cells. HeLa LMNA splicing GFP/RFP minigene ratio, 48 h. Potency, µM (top dose mostly 46.1 µM), inactives show at the top dose ratio change, negative = inhibition, usual class: inhibitors. hit rate 0.01% among 200,000; active means well fitted inhibition curve with a large enough effect in the signal ratio, with a control signal flat, not every such curve was filed as active; inconclusive means small, poorly fitted or top-dose-only effect, or effect the other way, or a change in a side signal; the % refers to the signal ratio; further: potency means the concentration at half of the fitted maximal effect; on the % scale 0 is the no-effect control and ±100 the full control effect
#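 S3 HeLa stable clones carrying a lamin A-EGFP splicing minigene plus DsRed2 were seeded at 600 cells/well in Opti-MEM with 2% FBS, pin-dosed and incubated 48 h at 37°C. Acumen cytometry (488 nm) gave the GFP/RFP total-intensity ratio.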
# JMJD2E inh – JMJD2E (human) inhibition | JMJD2E catalytic domain, FDH-coupled NADH fluorescence (FDH is formaldehyde dehydrogenase) | Potency, µM (highest dose often 57.1 µM), without a hit: at the top dose activity change, negative = inhibition, usual class: inhibitors | hit rate 1.6% among 230,000; active means well fitted inhibition curve with a large enough effect, not every such curve was filed as active; inconclusive means small, poorly fitted or top-dose-only effect, or another doubt; inactive means no such curve, though single readings can be large or run the other way;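 further: potency means the concentration at half of the fitted maximal effect; 0% = wells with enzyme and -100% = buffer wells without enzyme; nearly all actives have a fitted effect of over 50% in size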
# ALDH1A1 block – inhibitors of human aldehyde dehydrogenase 1A1 | P00352 | Potency, µM (titrated, usually from 75.3 µM), for the others: at the top dose activity, negative = inhibition, usual class: inhibitors | hit rate 7.3% among 220,000 | Purified ALDH1A1, NADH fluorescence, propionaldehyde substrate | AID 1030; active means well fitted inhibition curve with a large enough effect, not every such curve was filed as active; inconclusive means small, poorly fitted or top-dose-only effect, or another doubt; inactive means no such curve, though single readings can be large or run the other way;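 further: potency means the concentration at half of the fitted maximal effect; plate controls were no enzyme wells and a reference inhibitor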
# miR-21 reporter – raises the signal of a miR-21 reporter. HeLa miR-21 FLuc reporter, luciferase, 48 h. 340,000 tested, under 10 active. Potency, µM (highest dose often 38.3 µM), for the others: at the highest dose reporter change, positive = more light; active = well fitted rising curve with a large enough effect; inconclusive = small, poorly fitted or top-dose-only effect; inactive = no such curve, though single readings can be large or run the other way;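 note: % of control where 0% means no effect; miR-21 action dims this reporter so a rising signal means less miR-21 action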
#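 Using DMEM plus 10% FBS, HeLa miR-21-FLuc cells are incubated with test compounds (final up to about 40uM) for 48 hours; firefly luciferase signal is then imaged following reagent-mediated lysis.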
# * marks the source's active call; other numbers are inactive results; ? = inconclusive; / = not tested or not shown; [ ] = dose if it differs, or a comment. Unless noted, the call rests on the fitted dose curve; in most records, active means well fitted curve in the direction sought with a large enough effect; inconclusive means small, poorly fitted or top-dose-only effect, or another doubt; inactive means no such curve, though single readings can be large; an effect the other way counts as inactive or inconclusive.
SMILES	Sfp PPTase inh	G9a inh	Lamin A splicing	JMJD2E inh	ALDH1A1 block	miR-21 reporter
CCCC/C=C/C(NC(=O)c1ccc(C(F)(F)F)cc1)c1ccccc1 (stereo unspecified)	24.7%	/	/	-13.3%	-13.1%	/
CCOc1ccc(NC(=O)CN(C)C(=O)c2ccc(N3CCCC3)c([N+](=O)[O-])c2)cc1OCC	/	-2.1%[2.33 µM]	/	/	/	/
Cc1cc(Br)ccc1NC(=O)CN(C)C(=O)c1cc([N+](=O)[O-])ccc1N1CCOCC1	/	3.55µM*	/	/	/	/
CCOc1ccc(NC(=O)CN(C)C(=O)c2ccc(N3CCCCC3)c([N+](=O)[O-])c2)cc1OCC	/	50.1µM*	/	/	/	/
CCOc1ccc(NC(=O)CN(C)C(=O)c2ccccc2SCC(=O)N2CCCC2)cc1OCC	/	5.5%[0.501 µM]	/	/	/	/
CCOc1ccc(NC(=O)CN(C)C(=O)c2cc([N+](=O)[O-])ccc2N2CCCCC2)cc1OCC	/	2.24µM*	/	/	/	/
Cc1ccc(-c2csc3ncn(C(C)C(=O)O)c(=O)c23)cc1 (stereo unspecified)	15.7%	15.4%	/	/	/	-0.4%
O=C(CCN1C(=O)c2ccc([N+](=O)[O-])cc2C1=O)Nc1ccc(O)cc1C(=O)O	?	50.1µM*	/	?	-4.6%	0.5%
O=C(O)Cc1ccc(NC(=O)CCN2C(=O)c3ccc([N+](=O)[O-])cc3C2=O)cc1	2.5%	-1.2%	/	-0.3%	2.2%	1.4%
Nc1nc(-c2cc3c(cc2Cl)OCCO3)cs1	1.5%	14.1µM*	/	/	/	-26.7%
Nc1nc(-c2ccc3c(c2)OCCO3)cs1	-22.2%	?	-1.2%	-7.3%	?	-51.2%
CC(C)Oc1ccc(C(=O)N(Cc2ccc(N(C)C)cc2)Cc2ccco2)cc1	/	11.2µM*	/	/	/	5.4%
CCCCOc1ccc(C(=O)N(Cc2ccc(N(C)C)cc2)Cc2ccco2)cc1	/	11.2µM*	/	/	/	6.4%
CCC1=C2CC[C@H]3C(=O)N(CC)C(=O)[C@H]3[C@H]2[C@@]2(Cc3ccccc3)C(=O)N(CC3CC3)C(=O)N2C1=O	16.7%	/	/	-6.0%	-0.3%	/
COc1ccc(NC(=O)CN(C)Cc2cccs2)cc1Cl	-3.0%	31.9%	/	/	/	-38.8%
COC(=O)c1ccc(NC2c3ncccc3C(=O)N2Cc2cccs2)cc1 (stereo unspecified)	-9.4%	?	/	?	?	-10.0%
O=C1c2cccnc2C(Nc2ccc(Br)cc2)N1Cc1cccs1 (stereo unspecified)	-17.7%	50.1µM*	9.3%[9.22 µM]	?	6.31µM*	9.5%
COc1ccc(NC2c3ncccc3C(=O)N2Cc2cccs2)cc1 (stereo unspecified)	?	50.1µM*	/	6.2%	3.16µM*	-8.2%
COc1ccc(NC(=O)NNC(=O)C(C)Oc2ccc3ccccc3c2)cc1 (stereo unspecified)	10.5%	/	/	/	/	1.1%
Cc1c(C(=O)OC(C)C(C)C[N+](C)(C)C)oc2ccccc12 (stereo unspecified)	4.8%	12.6µM*	?	-29.0%	-10.0%	-0.6%
CN(C)c1ccc(N2C(=NC(=O)COc3ccccc3)SC3CS(=O)(=O)CC32)cc1 (stereo unspecified)	2.5%	50.1µM*	/	/	/	-16.2%
C=C(C)C1CC=C(C)/C(=N\NC(=O)CNc2cccc3ccccc23)C1 (stereo unspecified)	4.6%	10µM*	-9.6%	?	?	-9.6%
COc1cccc(OC)c1C(=O)Nc1ccccc1NC(=O)c1c(OC)cccc1OC	-2.7%	79.4µM*	/	/	/	-1.0%
COc1ccccc1NC(=O)c1ccccc1NS(=O)(=O)c1cccs1	7.5%	50.1µM*	-11.8%[46 µM]	-18.5%	5.8%	3.6%
O=C(/C=C/c1ccccc1Cl)Nc1cccnc1	-9.9%	18.7%	/	/	/	-27.0%

# Continuation:
SMILES	Sfp PPTase inh	G9a inh	Lamin A splicing	JMJD2E inh	ALDH1A1 block	miR-21 reporter
Cc1cc(C)nc(NC(=O)/C=C/c2ccccc2Cl)n1	-6.1%	-17.2%[59 µM]	-10.7%	11.2%	-2.6%	-37.9%
O=C(/C=C/c1ccccc1Cl)Nc1ccncc1	-10.5%	50.1µM*	-11.8%	-3.6%	-3.3%	-44.9%
Cc1cc(N)c2cc(NC(=O)/C=C/c3ccccc3Cl)ccc2n1	25.1µM*	25.1µM*	/	5.9%	-6.4%	?
O=C(Nc1ccc(Cl)cc1)N1CCCC(Cn2cccc2)C1 (stereo unspecified)	12.6%	?	/	4.5%	/	-18.5%
Cc1cccc(CNc2ccnc(-c3ccc(N(C)C)cc3)n2)c1	39.8µM*	/	?	?	?	/
Cc1cccc(CNc2ccnc(-c3ccoc3)n2)c1	50.1µM*	/	-16.4%	12.4%	12.6µM*	/
CN(C)c1ccc(-c2nccc(NCc3ccccc3)n2)cc1	-13.8%	/	?	?	?	/
O=C(c1ccco1)N1CCC2(CCN(Cc3nccs3)CC2)CC1	21.3%	0.8%[12.7 µM]	/	/	-7.0%	/
Fc1ccc(-n2ncc3c(NCCCc4ccccc4)ncnc32)cc1	/	18.4%[59 µM]	-8.0%[46 µM]	/	/	-50.2%
S=C1NNC2(CC3CC2C2CCCC32)NN1 (stereo unspecified)	-10.5%	1.78µM*	-12.3%[46 µM]	-12.0%	?	-12.3%
COc1cccc(-c2nccc(NCc3ccccc3)n2)c1	-20.2%	13.0%[0.501 µM]	?	/	?	/
Cc1ccc(-n2c(O)c(/C=N/Nc3ccc(S(=O)(=O)N4CCOCC4)cc3[N+](=O)[O-])c3ccccc3c2=O)c(C)c1	-18.0%	8.91µM*	?	?	-0.8%	?
O=C(O)COc1ccccc1/C=N/Nc1ccc(S(=O)(=O)N2CCOCC2)cc1[N+](=O)[O-]	-6.5%	39.8µM*	-3.9%[46 µM]	-16.3%	?	-3.2%
O=C(O)c1ccc(/C=N\Nc2ccc(S(=O)(=O)N3CCOCC3)cc2[N+](=O)[O-])cc1	4.3%	50.1µM*	/	-6.9%	/	-1.5%
NS(=O)(=O)c1ccc(N/N=C/c2ccc(C(=O)O)cc2)c([N+](=O)[O-])c1	?	/	/	-9.2%	/	-0.5%
Cc1ccc(Nc2ccc(S(=O)(=O)N3CCOCC3)cc2[N+](=O)[O-])cc1C	4.8%	?	?	0.5%	-4.1%	-0.5%
CCC(=O)Nc1ccc(S(=O)(=O)NCc2ccc3c(c2)CCN3C(=O)c2ccc(C)cc2)cc1	/	-1.1%[59 µM]	-1.8%[46 µM]	/	/	13.5%
COc1cc(/C=C2\SC(=S)N(Nc3ccccc3)C2=O)cc(OC)c1OC	1.3%	?	?	-1.5%	7.08µM*	-1.4%
CCOc1ccc(/C=C2\SC(=S)N(Nc3ccccc3)C2=O)cc1OC	?	7.08µM*	?	-6.3%	3.16µM*	-9.2%
COc1cc(/C=C2/SC(=S)N(CCC(=O)Nc3ccccc3)C2=O)cc(OC)c1OC	-29.1%	-9.8%	/	/	/	-2.6%
CN(C)c1ccc(C(CNC(=O)c2ccc(C#N)cc2)c2c[nH]c3ccccc23)cc1 (stereo unspecified)	16.0%	10µM*	-8.1%	-3.3%	14.1µM*	1.7%

# 2 entries from above, as labelled records:
> COc1ccc(NC(=O)NNC(=O)C(C)Oc2ccc3ccccc3c2)cc1 (stereo unspecified)
  Sfp PPTase inh: 10.5%
  G9a inh: /
  Lamin A splicing: /
  JMJD2E inh: /
  ALDH1A1 block: /
  miR-21 reporter: 1.1%

> Cc1c(C(=O)OC(C)C(C)C[N+](C)(C)C)oc2ccccc12 (stereo unspecified)
  Sfp PPTase inh: 4.8%
  G9a inh: 12.6µM*
  Lamin A splicing: ?
  JMJD2E inh: -29.0%
  ALDH1A1 block: -10.0%
  miR-21 reporter: -0.6%
